Results from article PMC2691528 (European Journal of Nuclear Medicine and Molecular Imaging, 2009).
Entries after “also recorded” stand apart in the source; their conditions may differ.

Sequences of proteins named here, by UniProt entry; tags and fusion partners are left off.
UniProt Q9R0C9, whole entry: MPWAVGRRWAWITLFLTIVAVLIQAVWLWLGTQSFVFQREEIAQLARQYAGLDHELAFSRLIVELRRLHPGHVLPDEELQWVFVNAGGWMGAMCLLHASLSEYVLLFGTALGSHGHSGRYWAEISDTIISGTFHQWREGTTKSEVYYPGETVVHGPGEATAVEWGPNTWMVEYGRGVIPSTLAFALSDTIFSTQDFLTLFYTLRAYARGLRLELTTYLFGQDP

Target: cellular sigma receptors (C6 rat glioma cells) (Rattus norvegicus, UniProt Q9R0C9)
Assay: Competition with 11C-SA4503 binding to intact C6 glioma cell monolayers

CC(=O)[C@H]1CC[C@H]2[C@@H]3CCC4=CC(=O)CC[C@]4(C)[C@H]3CC[C@]12C [progesterone]
competition with 11C-SA4503 for binding to cellular sigma receptors (50 µM competitor added to normal growth medium (DMEM with 7.5% FCS)): measurable competition
reduction of 11C-SA4503 radioligand binding to C6 cells (50 µM competitor, steroid-free medium): 60%
rank order of potency as competitor of 11C-SA4503 binding (C6 cells, both normal and steroid-depleted medium, 50 µM): progesterone > androstanolone = testosterone = allopregnanolone > DHEA-S; also recorded: most potent steroid inhibitor
